Reference: patent publication US8618162B2 (priority 2007, dated 2013)

Chains of the proteins cited; added tags and fusions are not shown. Residues count along the entry.
UniProt P22303, 32-614: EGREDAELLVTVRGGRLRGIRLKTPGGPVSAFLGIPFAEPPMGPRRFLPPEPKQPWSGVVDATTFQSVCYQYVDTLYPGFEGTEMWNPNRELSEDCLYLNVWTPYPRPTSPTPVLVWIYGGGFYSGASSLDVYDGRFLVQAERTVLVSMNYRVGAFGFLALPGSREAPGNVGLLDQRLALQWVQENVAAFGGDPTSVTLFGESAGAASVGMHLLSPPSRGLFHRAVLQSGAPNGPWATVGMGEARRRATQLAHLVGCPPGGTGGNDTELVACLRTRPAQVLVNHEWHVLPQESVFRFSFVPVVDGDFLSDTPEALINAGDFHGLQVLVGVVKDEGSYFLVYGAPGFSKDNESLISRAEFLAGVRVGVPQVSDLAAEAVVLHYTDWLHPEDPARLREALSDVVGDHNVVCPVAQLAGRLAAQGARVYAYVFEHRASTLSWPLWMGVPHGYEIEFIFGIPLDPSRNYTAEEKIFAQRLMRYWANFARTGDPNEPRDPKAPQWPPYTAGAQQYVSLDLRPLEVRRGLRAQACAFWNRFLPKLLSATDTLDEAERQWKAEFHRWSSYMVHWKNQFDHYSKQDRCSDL

Biological target: T1, hAChE (Homo sapiens, UniProt P22303)
T1 construct: purchased Sigma C1682
Experiment: Ellman AChE inhibition assay, recombinant hAChE
Type: biochemical
Conditions: pH 7.8, 10 min preincubation; read-out: hAChE recomb. IC50

Work on `CNC(=O)O/N=C/C(C)(C)SC` [Aldicarb, reference compound] yielded an IC50 of 4.42 µM.
